## Antibody variant affinities, Ab-91 heavy chain, assay 2

Source: Engelhart et al. 2022 (doi:10.1038/s41597-022-01779-4), MIT Lincoln Laboratory and A-Alpha Bio; data file from the FLAb repository.

Target: peptide PDVDLGDISGINAS, taken from heptad repeat 2 (HR2) of SARS-CoV-2 spike.

The variants keep the light chain, the linker and the frameworks of Ab-91 (scFv order VL, the linker GGGGSGGGGSGGGGS, VH).
VL: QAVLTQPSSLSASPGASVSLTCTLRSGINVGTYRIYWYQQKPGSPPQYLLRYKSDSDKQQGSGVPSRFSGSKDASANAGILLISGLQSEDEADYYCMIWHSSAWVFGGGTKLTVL
VH: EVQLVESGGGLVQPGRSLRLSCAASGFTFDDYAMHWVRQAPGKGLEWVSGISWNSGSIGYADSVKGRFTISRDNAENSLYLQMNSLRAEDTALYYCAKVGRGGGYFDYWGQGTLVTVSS

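The parent was found by panning a naive human phage display library on the peptide. AAYL51 was designed without a model: most single CDR substitutions and a random sample of double and triple ones. The scFvs were displayed on barcoded MATa yeast, the peptide on MATalpha yeast. Pairs that bind mate more often; barcode pairs of the diploids are counted by sequencing. Scores were corrected for input abundance and mapped to Kd with protein pairs of known affinity run in the same pool. Mating was done three times.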

Each variant is given by its three heavy chain CDRs, as the data file delimits them; those of the parent are GFTFDDYAMH, GISWNSGSIGYADSVK, VGRGGGYFDY. Every variant below is changed at I51 of the VH (sequential numbering). Scale: log10 of Kd in nM, estimated from mating counts; low values are strong binders. The mean shown is taken over the replicates in which the pair was detected. A pair that was not seen in any replicate is written "nd"; this usually means weak binding, but a binder can also be missed. Background: pairings of library AAYL51 with three empty control strains gave a value in 21% of cases (median 4.54, 5th percentile 3.26). Values in that range, when seen in few replicates, are hard to tell from nonspecific mating.

With GFRFDDYAMH | GESWNSGSIGYADSVK | VGRGGGYFDY the result was nd (0 of 3 replicates). For GFTFIDYAMH | GWSWNSGSIGYADSVK | VGRGGGYFDW, the assay gave 3.80 (1 of 3 replicates). The variant GFTFDDYAMH | GRSWNSGIIGYADSVK | VGRGGNYFDY showed 5.06 (1 of 3 replicates). The variant GFTFYDYAMH | GTSWNSGSIGYADSVK | VGRGGGYFDY gave 3.95 (1 of 3 replicates). The variant GFPFDDYAMH | GKSWNSGYIGYADSVK | VGRGGGYFDY gave 3.92 (1 of 3 replicates). With GFTFLDPAMH | GQSWNSGSIGYADSVK | VGRGGGYFDY the result was 5.15 (1 of 3 replicates).

The variant GFTFDDYAMH | GYSWNSGLIGYADSVK | VGRGGGYHDY gave nd (0 of 3 replicates). For GFTNDDYAMH | GLSWNSGSIGYADSVY | VGRGGGYFDY, the assay gave nd (0 of 3 replicates). For GFTFDDFAMH | GCSWNSGYIGYADSVK | VGRGGGYFDY, the assay gave nd (0 of 3 replicates). The variant GFTFHDYAMH | GPSWNSGSIGYADSVK | VGRGGGYFDY gave 4.89 (1 of 3 replicates). With GFTFDDYAMH | GFSWNSGSIGYADSVK | VGRGGGYFDY the result was 3.95 (3 of 3 replicates). For GFTFDDYAMH | GCSWNSGSIWYPDSVK | VGRGGGYFDY, the assay gave 5.65 (3 of 3 replicates).

For GFTFDDYAMW | GTSWNSGSIGYADSVK | VARGGGYFDY, the assay gave nd (0 of 3 replicates). For GFTFDDYAMH | GAGWNSGHIGYADSVK | VGRGGGYFDY, the assay gave nd (0 of 3 replicates). For GFTFDDYRMH | GCSWNSGSIGYADSVK | VGHGGGYFDY, the assay gave 4.18 (3 of 3 replicates). The variant KFTFDDYAMH | GVSWNSGSIGYADSVK | VGRGGGYFGY showed nd (0 of 3 replicates). The variant GFTFDDYAMH | GWSWNSGSIGYADKLK | VGRGGGYFDY gave nd (0 of 3 replicates). The variant GFTGDDEAMH | GQSWNSGSIGYADSVK | VGRGGGYFDY gave nd (0 of 3 replicates).

With GFTFDDYASH | GESWNSGSIGYADCVK | VGRGGGYFDY the result was 5.46 (2 of 3 replicates). The variant GFTFDDYAMH | GASWNSGSIGADDSVK | VGRGGGYFDY gave 4.81 (1 of 3 replicates). The variant GPVFDDYAMH | GMSWNSGSIGYADSVK | VGRGGGYFDY showed 4.40 (1 of 3 replicates). The variant GFTFDDYAMH | GCSWMSGSIGYRDSVK | VGRGGGYFDY showed nd (0 of 3 replicates). For GFTFDDYAMH | GYGWNSGSIGYADSVK | IGRGGGYFDY, the assay gave nd (0 of 3 replicates). For GFTFDDEAMH | GFSWNIGSIGYADSVK | VGRGGGYFDY, the assay gave nd (0 of 3 replicates).

The variant GFTFDDYAMH | GVSWNSGSIGYADSVI | VGWGGGYFDY showed 3.19 (3 of 3 replicates). For RFTFDDYAMH | GQSWNSGSIGYADSVK | VGRGGVYFDY, the assay gave 4.82 (1 of 3 replicates). With GFTFDDYAMH | PTSWNSGSIGYADSVK | VGRGGTYFDY the result was 4.00 (1 of 3 replicates). With GFTFDDYACH | GKSWNSGSIGYADSVK | VGRGGGYFDY the result was 4.73 (2 of 3 replicates). The variant GFTFDDYAMH | GRSWNSGSIGYARSVK | VGRGGGYFDY showed 5.43 (3 of 3 replicates). The variant GFTFDDYAMH | GRSWNIGSIGYADSVK | VGRGGCYFDY showed 4.77 (1 of 3 replicates).

The variant GFTFDDYAMH | GGSWNSGSIGYADSVK | VGRGGYYFDQ gave nd (0 of 3 replicates). With GFTFDDYAMP | GQSWNSGSIGYADSVK | VGRGGGYFDP the result was 4.45 (1 of 3 replicates). The variant GFTNDDYAMH | GDSWNSGSIGYADSVK | VGRGGGYFDY gave 3.41 (1 of 3 replicates). For GFTFDDYAMH | GYSWNQGSIGYADSVK | VGRNGGYFDY, the assay gave 4.78 (1 of 3 replicates). For GFTFDDYAMH | GYWWNSGSIGYADSVK | VGRGGGYFDQ, the assay gave 4.02 (1 of 3 replicates). With GFTFDDLAMH | GASWNSGSIGYADSVK | VGRGGGYFDY the result was 3.65 (1 of 3 replicates).

The variant GVTFDDYAMH | GYSWNSGSIGYADSVK | VGAGGGYFDY showed 4.31 (1 of 3 replicates). The variant FFTFDDYAMH | GASWNSGSIGYADSVK | VGRGGFYFDY showed 4.99 (1 of 3 replicates). With GFTFDDYSMH | GASWNSGSIGYADSDK | VGRGGGYFDY the result was 4.28 (1 of 3 replicates). The variant HFTFDDYAMH | GKSWNSGSIGYADSVK | VGRGGGYFDY showed 4.12 (2 of 3 replicates). For GFYFDDYAMH | GRSWNSGSIGYAMSVK | VGRGGGYFDY, the assay gave 3.93 (1 of 3 replicates). The variant RFTFHDYAMH | GKSWNSGSIGYADSVK | VGRGGGYFDY showed 4.38 (2 of 3 replicates).

With GFTFDDYAMH | GNSWNSGSIGYADWVK | VGRGGGYFDY the result was nd (0 of 3 replicates). For GFTFDDYAMH | GESWNSGSIGYADSVK | VGRGGCYFDY, the assay gave nd (0 of 3 replicates). The variant GFTFDDYAMH | GQSWNSGSIGYADSVK | DGRGGGEFDY showed 5.05 (3 of 3 replicates). For GFTFDDYAMH | GVSWNSGSNGYADSVK | VGRGGGYFDY, the assay gave nd (0 of 3 replicates). The variant GFTFDDYAMH | GPSWNSGSIGYADSVK | VGRGGGYFDY gave nd (0 of 3 replicates). For GFTFDDYYMH | GYSWNSGSIGYPDSVK | VGRGGGYFDY, the assay gave nd (0 of 3 replicates).

The variant GFTLDDYANH | GRSWNSGSIGYADSVK | VGRGGGYFDY showed nd (0 of 3 replicates).

The opening 7 entries, copied out:

CDR-H1,CDR-H2,CDR-H3,"mean, log10 nM",detected
GFRFDDYAMH,GESWNSGSIGYADSVK,VGRGGGYFDY,nd,0 of 3
GFTFIDYAMH,GWSWNSGSIGYADSVK,VGRGGGYFDW,3.80,1 of 3
GFTFDDYAMH,GRSWNSGIIGYADSVK,VGRGGNYFDY,5.06,1 of 3
GFTFYDYAMH,GTSWNSGSIGYADSVK,VGRGGGYFDY,3.95,1 of 3
GFPFDDYAMH,GKSWNSGYIGYADSVK,VGRGGGYFDY,3.92,1 of 3
GFTFLDPAMH,GQSWNSGSIGYADSVK,VGRGGGYFDY,5.15,1 of 3
GFTFDDYAMH,GYSWNSGLIGYADSVK,VGRGGGYHDY,nd,0 of 3

In this assay the parent's reference entry averaged 1.86; its copy inside this library read 0.88.